{"source": "ChEMBL document CHEMBL4339250", "about": "“Polycerasoidol, a Natural Prenylated Benzopyran with a Dual PPARα/PPARγ Agonist Activity and Anti-inflammatory Effect” (J Nat Prod, 2019)", "system": "HUVEC", "experiment": "Anti-inflammatory activity in HUVEC assessed as reduction in TNFalpha-stimulated neutrophil-HUVEC interactions by measuring decrease in mononuclear leukocyte to endothelial cells pretreated for 20 hrs before TNFalpha stimulation for 24 hrs using freshly isolated mononuclear leukocytes perfused over endothelial monolayers for 5 mins by phase contrast microscopy", "type": "functional, cell-based", "conditions": "Homo sapiens"}
{"smiles": "C/C(=C\\CC[C@]1(C)CCc2cc(O)cc(C)c2O1)CC/C=C(\\C)C(=O)O", "values": [{"measurement": "inhibition", "value": "Dose-dependent effect"}]}
